Each structure is given as a SMILES string. The list shows a part of the results, in another mix than the full data. Activity calls are given as the source filed them.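 Rule for the calls: active = activation above a run cutoff, the mean activation of all tested compounds plus 3 SD (cut at about 14% in these data); inactive = the rest.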

The chains behind the UniProt entries cited, without tags or fusion partners.
UniProt P35363, whole entry, looked up: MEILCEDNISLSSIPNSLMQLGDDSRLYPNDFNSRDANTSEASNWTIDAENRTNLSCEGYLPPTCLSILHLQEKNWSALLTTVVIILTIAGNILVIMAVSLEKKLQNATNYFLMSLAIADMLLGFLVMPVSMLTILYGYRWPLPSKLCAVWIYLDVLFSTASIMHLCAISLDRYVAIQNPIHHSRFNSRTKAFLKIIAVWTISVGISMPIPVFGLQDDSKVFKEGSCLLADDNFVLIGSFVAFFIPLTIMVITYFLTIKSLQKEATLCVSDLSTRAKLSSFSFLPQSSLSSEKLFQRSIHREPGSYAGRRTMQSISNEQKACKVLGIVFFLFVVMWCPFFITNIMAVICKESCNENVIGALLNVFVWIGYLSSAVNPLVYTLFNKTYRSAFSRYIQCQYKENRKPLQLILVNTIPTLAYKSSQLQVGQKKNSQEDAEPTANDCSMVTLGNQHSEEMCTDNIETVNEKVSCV

The values that follow come from PubChem BioAssay AID624169 (The Scripps Research Institute Molecular Screening Center, 2012).

This assay concerns the target 5-hydroxytryptamine receptor 2A (Mus musculus) (UniProt P35363). The assay is described as follows: mouse Htr2a agonists via beta-arrestin recruitment, primary screen, cell-based, luminescence (AID 624169).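 Note: 0% = plate median of compound wells and 100% = 30 µM serotonin.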 Conditions: CHO-K1 mHTR2A beta-arrestin complementation, at 7.6 µM, hits give high values, percent of 30 µM serotonin response.
Take `CN(CCCl)Cc1cc(Cl)c(NC2=NCCN2)c(Cl)c1`: the activation is inactive: 4.33%.
With `CCOP(=O)(Nc1ccc(C)cn1)OCC` the figure was inactive: -0.7%; with `CCOP(=O)(NC(=NC(C)c1ccccc1)NC(C)c1ccccc1)OCC` (centres undefined), inactive: -4.63%; with `CCC1=CC2Cc3nc4ccc(Cl)cc4c(N)c3C(C1)C2` (centres undefined), inactive: -0.75%.
With `O=P1(Nc2ccccn2)COc2ccccc2OC1`, the activation was inactive: 2.35%.
As for `CC(C)(C)C(=O)NC(Sc1ncccn1)C(Cl)(Cl)Cl` (centres undefined), the activation was inactive: 7.29%.
Regarding `Clc1n[nH]nc1-c1nn[nH][15n]1`, the activation was inactive: -2.85%.
On to `O=P1(N(CCCl)CCCl)NCCC(C(F)(F)F)O1` (centres undefined), for which the activation was inactive: 4.43%.
As to `COc1ccccc1CNC(=O)COC(=O)C(O)(c1ccccc1)c1ccccc1`, the activation is inactive: -0.55%.
With `CC1(CBr)Cn2c(nc3ccccc3c2=O)S1` (centres undefined) the figure was inactive: -2.61%.
For `CN(C(=O)Cc1ccc(Cl)c(Cl)c1)[C@@H]1CCCC[C@H]1N1CCCC1`, the activation was inactive: -4.92%.
Take `CC(C)/C=N\N=C(\N)N[N+](=O)[O-]`: the activation was inactive: 3.48%.
With `Cc1ccc(C(=O)OC2CN3CCC2CC3)cc1` (centres undefined) the figure was inactive: -1.6%.
As to `CC1CCC(C(C)C)C(OP(=O)(Nc2ccccn2)c2ccccc2)C1` (centres undefined), the activation was inactive: 1.27%.
As for `Cc1nn(-c2ccccc2)c2c1P(=O)(N1CCOCC1)N(C)C(c1ccccc1)=N2` (centres undefined), the activation is inactive: 3.39%.
Take `CCCC1OP(=O)(Nc2ccccc2)OCC1CC` (centres undefined): the activation is inactive: -4.65%.
`O=C(/C=C/c1ccccc1)OC1CN2CCC1CC2` (centres undefined): the activation is inactive: -2.42%.
On to `CN(C)C1(CNC(=O)c2ccc(S(C)(=O)=O)cc2)CCCCC1`, for which the activation was inactive: 0.7%.
With `O=P1(Nc2ncccn2)COc2ccccc2OC1`, the activation is inactive: 1.13%.
For `Cc1ccc(S(=O)(=O)N(CCCN)CCCc2c(C)nc(N)[nH]c2=O)cc1`, the activation is inactive: -9.11%.
Consider `NS(=O)(=O)c1cccc(NC(=O)COC(=O)C(O)(c2ccccc2)c2ccccc2)c1`, for which the activation is inactive: -5.73%.
Take `O=P1(Nc2ccc(Br)cn2)COc2ccccc2OC1`: the activation is inactive: 1.72%.
For `Cc1ccc(OCC(=O)OC2CN3CCC2CC3)cc1` (centres undefined), the activation is inactive: 0.88%.
Turning to `O=[As](O)(c1cccs1)c1cccs1`, the activation is inactive: 12.3%.
In the case of `Nc1cccc([As](=O)(O)c2ccccc2)c1`, the activation is inactive: -2.65%.
As to `CS(=O)(=O)c1cc([N+](=O)[O-])c2no[n+]([O-])c2c1`, the activation was inactive: -0.2%.
Consider `O=P(Nc1nccs1)(c1ccccc1)c1nc2ccccc2s1` (centres undefined), for which the activation was inactive: 2.35%.
Take `O=P(Nc1nccs1)(Oc1ccccc1)Oc1ccccc1`: the activation is inactive: 10.1%.
In the case of `CCOP1(=S)c2c(C)nn(CCC#N)c2N=C(c2ccccc2F)N1C` (centres undefined), the activation was inactive: -8.4%.
Consider `O=C(O)COc1ccc([As](=O)(O)O)cc1[N+](=O)[O-]`, for which the activation was inactive: 0.84%.
In the case of `Nc1ccccc1[As](=O)(O)c1ccccc1`, the activation was inactive: 2.61%.
As for `NC(=O)Nc1ccc([As](=O)(O)O)cc1`, the activation is inactive: -1.11%.
Regarding `CN(C(=O)Cc1ccc(Cl)c(Cl)c1)[C@H]1CC[C@@]2(CCCO2)C[C@@H]1N1CCCC1`, the activation was inactive: -4.43%.
Regarding `CN(C)C(=O)c1cc([N+](=O)[O-])cc2c1-c1c(cc([N+](=O)[O-])cc1[N+](=O)[O-])C2=O`, the activation was inactive: -5.27%.
In the case of `O=[N+]([O-])c1ccc2c(c1)nnn2O`, the activation was inactive: -4.41%.
As to `CN(C(=O)Cc1ccccc1)[C@@H]1CC[C@]2(CCCO2)C[C@H]1N1CCCC1`, the activation was inactive: -1.61%.
With `CCOP1(=S)c2c(C)nn(CCC#N)c2N=C(c2ccc(F)cc2)N1C` (centres undefined) the figure was inactive: -9.46%; with `N#CCCN(C(=O)COC(=O)C(O)(c1ccccc1)c1ccccc1)c1ccc(F)cc1`, inactive: -0.57%; with `CS(=O)(=O)c1ccc(Cl)c(NC(=O)COC(=O)C(O)(c2ccccc2)c2ccccc2)c1`, inactive: 2.34%.
In the case of `COc1cc(C(=O)NCC2(N3CCOCC3)CCCCC2)cc(Cl)c1OC(C)C`, the activation is inactive: -6.3%.
With `O=[As](O)(O)c1cccnc1`, the activation was inactive: -1.69%.
On to `O=C(OC1CN2CCC1CC2)c1ccc(Cl)cc1` (centres undefined), for which the activation was inactive: -0.44%.
For `O=[As](O)(c1cccc(O)c1)c1cccc(O)c1`, the activation is inactive: 0.9%.
As to `Cc1cccc(OCC(=O)OC2CN3CCC2CC3)c1` (centres undefined), the activation is inactive: -2.12%.
For `CCCOP(=S)(Nc1nc(N)cc(=O)[nH]1)OCCC`, the activation is inactive: -0.06%.
Take `Cc1ccc(NCCc2c([N+](=O)[O-])cc([N+](=O)[O-])cc2[N+](=O)[O-])cc1`: the activation was inactive: -5.31%.
With `Nc1cccc2c([As](=O)(O)O)cccc12` the figure was inactive: -2.59%.
`CCOP(=O)(Nc1cccc2ccccc12)OCC`: the activation is inactive: 0.88%.
As to `COc1cc(C2NCCC3(OCCO3)C2(C)C)cc(OC)c1OC` (centres undefined), the activation is inactive: 0.61%.
With `Cc1cc(=O)[nH]c(N[N+](=O)[O-])n1` the figure was inactive: -0.96%; with `O=C(OC1CN2CCC1CC2)C12CC3CC(CC(C3)C1)C2` (centres undefined), inactive: -1.03%; with `Cc1c2c(nc3ccccc13)SC(C(Cl)Cl)C2` (centres undefined), inactive: 4.88%.
Turning to `COc1cc(I)ccc1[As](=O)(O)O`, the activation is inactive: -2.51%.
Turning to `COc1ccc2nc(NP(=O)(c3ccccc3)c3ccccc3)sc2c1`, the activation was inactive: -5.63%.
Consider `O=P1(N(CCCl)CCCl)OCCCN1CCCl` (centres undefined), for which the activation was inactive: 1.11%.
Then `O=P1(N(CCCl)CCCl)Nc2ccccc2N1`, with inactive: 3.39%; and `COc1ccc(N/C(=N/P(=O)(N2CCOCC2)N2CCOCC2)N2CCOCC2)cc1`, with inactive: -1.54%.
With `O=[N+]([O-])c1cc(Oc2ccc([N+](=O)[O-])cc2C(F)(F)F)cc([N+](=O)[O-])c1`, the activation is inactive: 2.79%.
`COc1cc(C(=O)NCC2(N3CCOCC3)CCCCC2)ccc1OCC(C)C`: the activation was inactive: -14.6%.
`O=[N+]([O-])c1ccc(-c2cc([N+](=O)[O-])c(O)c([N+](=O)[O-])c2)cc1`: the activation is inactive: 1.94%.
Take `C[As](=O)(O)c1cccc(C(=O)O)c1`: the activation was inactive: 1.61%.
Consider `O=[As](O)(c1ccc(O)cc1)c1ccccc1O`, for which the activation was inactive: 2.74%.
Turning to `Cc1ccc2nc3c(c(C)c2c1)CC(C(Cl)Cl)S3` (centres undefined), the activation was inactive: 3.79%.
Regarding `Cc1ccc(OP(=O)(Nc2ccc([N+](=O)[O-])cn2)Oc2ccc(C)cc2)cc1`, the activation is inactive: 7.2%.
